# From ChEMBL document CHEMBL4376874, “Discovery of Potent and Selective Epidermal Growth Factor Receptor (EGFR) Bifunctional Small-Molecule Degraders” (J Med Chem, 2020)
# Chains of the proteins cited; added tags and fusions are not shown.
# von Hippel-Lindau disease tumor suppressor/Epidermal growth factor receptor (Homo sapiens), P00533+P40337, UniProt P40337, whole entry, looked up, stated change not applied: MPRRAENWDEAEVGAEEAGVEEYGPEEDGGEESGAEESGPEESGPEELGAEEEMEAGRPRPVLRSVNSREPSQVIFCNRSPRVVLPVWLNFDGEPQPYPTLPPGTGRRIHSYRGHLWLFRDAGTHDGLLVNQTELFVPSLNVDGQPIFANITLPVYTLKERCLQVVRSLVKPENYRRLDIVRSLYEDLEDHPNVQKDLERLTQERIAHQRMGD
# Assays:
# Format in all cases: cell-based
# [1] = system: von Hippel-Lindau disease tumor suppressor/Epidermal growth factor receptor (Homo sapiens), P00533+P40337 [UNDEFINED MUTATION]; experiment: Protac activity at VHL/EGFR exon 19 deletion mutant in human HCC827 cells assessed as induction of EGFR degradation at 10 nM treated 8 hrs post serum starvation measured after 16 hrs by Western blot analysis
# [2] = system: von Hippel-Lindau disease tumor suppressor/Epidermal growth factor receptor (Homo sapiens), P00533+P40337 [UNDEFINED MUTATION]; experiment: Protac activity at VHL/EGFR exon 19 deletion mutant in human HCC827 cells assessed as induction of EGFR degradation treated 8 hrs post serum starvation measured after 16 hrs by Western blot analysis
# [3] = system: von Hippel-Lindau disease tumor suppressor/Epidermal growth factor receptor (Homo sapiens), P00533+P40337 [L858R]; experiment: Protac activity at VHL/EGFR L858R mutant in human H3255 cells assessed as induction of EGFR degradation treated 8 hrs post serum starvation measured after 16 hrs by Western blot analysis
# [4] = system: von Hippel-Lindau disease tumor suppressor/Epidermal growth factor receptor (Homo sapiens), P00533+P40337 [L858R]; experiment: Protac activity at VHL/EGFR L858R mutant in human H3255 cells assessed as induction of EGFR degradation at >=50 nM treated 8 hrs post serum starvation measured after 16 hrs by Western blot analysis relative to control
# [5] = system: von Hippel-Lindau disease tumor suppressor/Epidermal growth factor receptor (Homo sapiens), P00533+P40337 [UNDEFINED MUTATION]; experiment: Protac activity at VHL/EGFR exon 19 deletion mutant in human HCC827 cells assessed as induction of EGFR degradation at 10 uM treated 8 hrs post serum starvation measured after 16 hrs by Western blot analysis
# [6] = system: von Hippel-Lindau disease tumor suppressor/Epidermal growth factor receptor (Homo sapiens), P00533+P40337 [L858R]; experiment: Protac activity at VHL/EGFR L858R mutant in human H3255 cells assessed as induction of EGFR degradation at 10 uM treated 8 hrs post serum starvation measured after 16 hrs by Western blot analysis
# [7] = system: von Hippel-Lindau disease tumor suppressor/Epidermal growth factor receptor (Homo sapiens), P00533+P40337 [UNDEFINED MUTATION]; experiment: Protac activity at VHL/EGFR exon 19 deletion mutant in human HCC827 cells assessed as reduction in AKT phosphorylation at 100 nM treated 8 hrs post serum starvation measured after 4 hrs by Western blot analysis
# [8] = system: von Hippel-Lindau disease tumor suppressor/Epidermal growth factor receptor (Homo sapiens), P00533+P40337 [UNDEFINED MUTATION]; experiment: Protac activity at VHL/EGFR exon 19 deletion mutant in human HCC827 cells assessed as induction of EGFR degradation at 100 nM treated 8 hrs post serum starvation measured after 4 hrs by Western blot analysis relative to control
# [9] = system: von Hippel-Lindau disease tumor suppressor/Epidermal growth factor receptor (Homo sapiens), P00533+P40337 [UNDEFINED MUTATION]; experiment: Protac activity at VHL/EGFR exon 19 deletion mutant in human HCC827 cells assessed as induction of EGFR degradation at 100 nM treated 8 hrs post serum starvation measured after 12 to 24 hrs by Western blot analysis relative to control
# [10] = system: von Hippel-Lindau disease tumor suppressor/Epidermal growth factor receptor (Homo sapiens), P00533+P40337 [UNDEFINED MUTATION]; experiment: Protac activity at VHL/EGFR exon 19 deletion mutant in human HCC827 cells assessed as induction of EGFR degradation at 0.1 to 1 uM incubated for 8 hrs in absence of FBS by Western blot analysis
# [11] = system: von Hippel-Lindau disease tumor suppressor/Epidermal growth factor receptor (Homo sapiens), P00533+P40337 [L858R]; experiment: Protac activity at VHL/EGFR L858R mutant in human H3255 cells assessed as induction of EGFR degradation at 0.1 to 1 uM incubated for 8 hrs in absence of FBS by Western blot analysis
# [12] = system: von Hippel-Lindau disease tumor suppressor/Epidermal growth factor receptor (Homo sapiens), P00533+P40337 [L858R]; experiment: Protac activity at VHL/EGFR L858R mutant in human H3255 cells assessed as induction of EGFR degradation at 100 nM measured after 8 hrs in presence of neddylation inhibitor MLN4924 by Western blot analysis
# [13] = system: von Hippel-Lindau disease tumor suppressor/Epidermal growth factor receptor (Homo sapiens), P00533+P40337 [L858R]; experiment: Protac activity at VHL/EGFR L858R mutant in human H3255 cells assessed as induction of EGFR degradation at 100 nM measured after 8 hrs in presence of VHL inhibitor VH-298 by Western blot analysis
# [14] = system: von Hippel-Lindau disease tumor suppressor/Epidermal growth factor receptor (Homo sapiens), P00533+P40337 [L858R]; experiment: Protac activity at VHL/EGFR L858R mutant in human H3255 cells assessed as induction of EGFR degradation at 100 nM measured after 8 hrs in presence of negative control MS39N by Western blot analysis
# [15] = system: von Hippel-Lindau disease tumor suppressor/Epidermal growth factor receptor (Homo sapiens), P00533+P40337 [L858R]; experiment: Protac activity at VHL/EGFR L858R mutant in human H3255 cells assessed as induction of EGFR degradation at 100 nM measured after 8 hrs in presence of EGFR inhibitor gefitinib by Western blot analysis
# [16] = system: von Hippel-Lindau disease tumor suppressor/Epidermal growth factor receptor (Homo sapiens), P00533+P40337 [UNDEFINED MUTATION]; experiment: Reversible protac activity at VHL/EGFR exon 19 deletion mutant in human HCC827 cells assessed as recovery of EGFR degradation at 100 nM preincubated for 12 hrs followed by compound washout and measured after 24 hrs by Western blot analysis
# [17] = system: von Hippel-Lindau disease tumor suppressor/Epidermal growth factor receptor (Homo sapiens), P00533+P40337 [UNDEFINED MUTATION]; experiment: Reversible protac activity at VHL/EGFR exon 19 deletion mutant in human HCC827 cells assessed as recovery of EGFR phosphorylation at 100 nM preincubated for 12 hrs followed by compound washout and measured after 24 hrs by Western blot analysis
# [18] = system: von Hippel-Lindau disease tumor suppressor/Epidermal growth factor receptor (Homo sapiens), P00533+P40337 [UNDEFINED MUTATION]; experiment: Reversible protac activity at VHL/EGFR exon 19 deletion mutant in human HCC827 cells assessed as recovery of AKT phosphorylation at 100 nM preincubated for 12 hrs followed by compound washout and measured after 48 hrs by Western blot analysis
# [19] = system: von Hippel-Lindau disease tumor suppressor/Epidermal growth factor receptor (Homo sapiens), P00533+P40337 [L858R]; experiment: Reversible protac activity at VHL/EGFR L858R mutant in human H3255 cells assessed as recovery of EGFR degradation at 100 nM preincubated for 12 hrs followed by compound washout and measured up to 48 hrs by Western blot analysis
# [20] = system: von Hippel-Lindau disease tumor suppressor/Epidermal growth factor receptor (Homo sapiens), P00533+P40337 [L858R]; experiment: Reversible protac activity at VHL/EGFR L858R mutant in human H3255 cells assessed as recovery of EGFR phosphorylation at 100 nM preincubated for 12 hrs followed by compound washout and measured up to 48 hrs by Western blot analysis
# [21] = system: von Hippel-Lindau disease tumor suppressor/Epidermal growth factor receptor (Homo sapiens), P00533+P40337 [UNDEFINED MUTATION]; experiment: Protac activity at VHL/EGFR exon 19 deletion mutant in human HCC827 cells assessed as induction of EGFR degradation at 100 nM measured after 16 hrs by LC-MS analysis relative to control
compound,measurement,setting,value
COc1cc2ncnc(Nc3ccc(F)c(Cl)c3)c2cc1OCCCN1CCN(C(=O)CCCCCCCCCC(=O)N[C@H](C(=O)N2C[C@H](O)C[C@H]2C(=O)NCc2ccc(-c3scnc3C)cc2)C(C)(C)C)CC1,Activity,[1],Active
same,Activity,[2],Dose-dependent effect
same,Activity,[3],Dose-dependent effect
same,%max,[4],> 95%
same,Activity,[5],inactive
same,Activity,[6],Active
same,Activity,[7],Active
same,Activity,[8],50%
same,Activity,[9],100%
same,Activity,[10],Active
same,Activity,[11],Active
same,Activity,[12],inactive
same,Activity,[13],inactive
same,Activity,[14],inactive
same,Activity,[15],inactive
same,Activity,[16],Active
same,Activity,[17],Active
same,Activity,[18],Active
same,Activity,[19],Active
same,Activity,[20],Active
same,Activity,[21],> 75%

# The source made the active and inactive calls. The rule behind the calls is not given here.
